## Curated experimental data: melting point values

Values as listed in the OPERA 2.9 repository of K. Mansouri.

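The numbers are reported measurements, compiled and curated for the OPERA QSAR suite. One number stands for a compound and property, with no spread given. Method, purity and exact conditions of the single measurements are not given. The measured form (salt, isomer or mixture) is not always the one drawn. Some upstream entries may be estimates or bounds without being marked so.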

Melting points are in °C.

- Cn1ccnc1C(N)c1ccccc1 (centres undefined) [1-(1-Methyl-1H-imidazol-2-yl)-1-phenylmethanamine]: melting point 52 °C
- CCc1ccccc1C(=O)N(NC(=O)c1ccccc1)C(C)(C)C [N'-Benzoyl-N-tert-butyl-2-ethylbenzohydrazide]: melting point 178 °C
- Cc1[nH]c2ccc(F)cc2c1CC(=O)O [(5-fluoro-2-methyl-1H-indol-3-yl)acetic acid]: melting point 181 °C
- COc1ccc(-c2nnn(CC(=O)O)n2)cc1OC [[5-(3,4-dimethoxyphenyl)-2H-tetrazol-2-yl]acetic acid]: melting point 260 °C
- C[Si](C)(CCC(F)(F)C(F)(F)C(F)(F)C(F)(F)C(F)(F)C(F)(F)C(F)(F)C(F)(F)F)O[Si](C)(C)CCC(F)(F)C(F)(F)C(F)(F)C(F)(F)C(F)(F)C(F)(F)C(F)(F)C(F)(F)F: melting point -2.5 °C
- CNC(=S)N(C)C [1,1,3-Trimethyl-2-thiourea]: melting point 87.5 °C
- O=C1C(=O)N(CN2CCN(CCO)CC2)c2ccccc21: melting point 158 °C
- CC[C@]12CC[C@@H]3c4ccc(OC)cc4CC[C@H]3[C@@H]1CC[C@@H]2OC(C)=O: melting point 116 °C
- COc1ccc(S(=O)(=O)Cl)cc1F [3-fluoro-4-methoxybenzenesulfonyl chloride]: melting point 78.5 °C
- Nc1oc2ccc(F)cc2c(=O)c1C=O [2-amino-6-fluoro-4-oxo-4H-chromene-3-carbaldehyde]: melting point 252 °C
- O=C(O)C1(c2cccc(Cl)c2)CCC1 [1-(3-chlorophenyl)cyclobutanecarboxylic acid]: melting point 102 °C
- Fc1ccc(C2(c3ccccc3F)CO2)cc1 (centres undefined) [2-(2-Fluorophenyl)-2-(4-fluorophenyl)oxirane]: melting point 3 °C
- COC(=O)c1ccc(C=CC(=O)O)cc1 [Benzoic acid, 4-(2-carboxyethenyl)-, 1-methyl ester]: melting point 237 °C
- CC1=CC(=C(c2ccc(N)c(C)c2)c2ccc(N)c(C)c2)C=CC1=N.Cl [Basic Violet 2]: melting point 226.5 °C
- CC(=O)c1ccc(C)c(F)c1 [3'-Fluoro-4'-methylacetophenone]: melting point 32.5 °C
- CN(C)C(=O)c1ccc(Cl)cc1N [2-Amino-4-chloro-N,N-dimethylbenzamide]: melting point 66 °C
- O=C(CCl)Nc1ccc2nn(C3CCCC3)nc2c1 [2-Chloro-N-(2-cyclopentyl-2H-benzotriazol-5-yl)acetamide]: melting point 150 °C
- O=C(O)c1ccc(NC(=O)c2cc(Cl)cc(Cl)c2)cc1 [4-(3,5-Dichlorobenzamido)benzoic acid]: melting point 306 °C
- CNS(=O)(=O)c1ccc(C(=O)O)cc1 [4-[(methylamino)sulfonyl]benzoic acid]: melting point 248 °C
- CCN(Cc1ccccc1)c1ccc(C=O)cc1 [4-[Benzyl(ethyl)amino]benzaldehyde]: melting point 40 °C
- Cc1ccc(Oc2ccc(O)cc2)cc1 [4-(4-methylphenoxy)phenol]: melting point 72 °C
- CCN(CC)c1ccc(S(N)(=O)=O)cc1N [3-amino-4-(diethylamino)benzenesulfonamide]: melting point 103 °C
- Cc1ccc(C(N)=O)cc1N=Nc1c(O)c(C(=O)Nc2ccccc2)cc2ccccc12 [4-((5-Carbamoyl-o-tolyl)azo)-3-hydroxynaphth-2-anilide]: melting point 250.6 °C
- Nc1cccc(S(=O)(=O)CCO)c1 [Ethanol, 2-[(3-aminophenyl)sulfonyl]-]: melting point 82.35 °C
- CC(=O)Oc1ccccc1C(=O)OCC(=O)N(C)CC(N)=O: melting point 132 °C
- CCCOc1cc(C=O)ccc1OC [4-Methoxy-3-propoxybenzaldehyde]: melting point 36 °C
- N#CCC(=O)Nc1nccs1 [2-Cyano-N-thiazol-2-yl-acetamide]: melting point 229 °C
- O=C(O)CCN1C(=O)c2ccccc2S1(=O)=O: melting point 165 °C
- CCCNC(=S)NN [Hydrazinecarbothioamide, N-propyl-]: melting point 62 °C
- CCOc1ncc(C)c2c1C(c1ccc(C#N)cc1OC)C(C(=O)O)=C(C)N2 (centres undefined): melting point 157.6 °C
- Cn1c(N)c(C(=O)CCl)c(=O)[nH]c1=O [6-Amino-5-(chloroacetyl)-1-methylpyrimidine-2,4(1H,3H)-dione]: melting point 357 °C
- N#Cc1ccc(OCCBr)cc1 [4-(2-Bromoethoxy)benzonitrile]: melting point 57 °C
- O=C1CC2(CCCCC2)C(=O)O1 [2-oxaspiro[4.5]decane-1,3-dione]: melting point 56 °C
- CCCC(C)C(=O)Nc1ccc(Cl)c(Cl)c1 (centres undefined) [N-(3,4-Dichlorophenyl)-2-methylpentanamide]: melting point 106 °C
- O=C(O)C1(c2cccc(Br)c2)CCCC1 [1-(3-Bromophenyl)cyclopentane-1-carboxylic acid]: melting point 159 °C
- O=C(O)CNC(=O)Nc1ccccc1 [n-(phenylcarbamoyl)glycine]: melting point 197 °C
- COc1ccc([N+](=O)[O-])cc1CCl [2-(chloromethyl)-1-methoxy-4-nitrobenzene]: melting point 79 °C
- CC[N+]1(C)CCCC1.[Br-] [1-Ethyl-1-methylpyrrolidinium bromide]: melting point 298.9 °C
- CC(O)c1cc2ccccc2o1 (centres undefined) [1-(1-benzofuran-2-yl)ethanol]: melting point 17 °C
- COc1ccc(-c2noc(CCCC(=O)O)n2)cc1 [4-[3-(4-methoxyphenyl)-1,2,4-oxadiazol-5-yl]butanoic acid]: melting point 110 °C
- Cc1nn2cccnc2c1C(=O)O [2-methylpyrazolo[1,5-a]pyrimidine-3-carboxylic acid]: melting point 177 °C
- Nc1ccc(S(=O)(=O)N2CCCC2)cc1 [4-(pyrrolidin-1-ylsulfonyl)aniline]: melting point 165 °C
- CCC1(CC)NC(=O)NC1=O [5,5-Diethylhydantoin]: melting point 181 °C
- CC(=O)OCC(=O)[C@@]1(O)[C@H](C)C[C@H]2[C@@H]3C=C(C)C4=Cc5c(cnn5-c5ccccc5)C[C@]4(C)[C@H]3[C@@H](O)C[C@@]21C [Cortivazol]: melting point 230 °C
- COc1ccc(CCNC(N)=S)cc1OC [[2-(3,4-Dimethoxy-phenyl)-ethyl]-thiourea]: melting point 160 °C
- Fc1ccc2c(Cl)ncnc2c1 [4-Chloro-7-fluoroquinazoline]: melting point 91 °C
- CCOc1ccc(C(=O)NCC(=O)O)cc1 [(4-Ethoxy-benzoylamino)-acetic acid]: melting point 155 °C
- COc1ccc(N)cc1NC(=O)OC(C)(C)C [tert-Butyl (5-amino-2-methoxyphenyl)carbamate]: melting point 109 °C
- O=C(O)c1cccc(N2CCCC2=O)c1 [3-(2-oxopyrrolidin-1-yl)benzoic acid]: melting point 202 °C
- Nc1ccc(S(=O)(=O)Nc2cccc(Cl)c2)cc1 [4-amino-N-(3-chlorophenyl)benzenesulfonamide]: melting point 133 °C
- Cc1cc(C)n(-c2ccccc2N)n1 [2-(3,5-dimethyl-1H-pyrazol-1-yl)aniline]: melting point 82 °C
- O=C(NC(Cc1c[nH]c2ccccc12)C(=O)O)c1ccc(F)cc1 (centres undefined) [N-(4-Fluorobenzoyl)tryptophan]: melting point 96.5 °C
- O=C(c1c[nH]c2ccccc12)C(Cl)c1ccccc1 (centres undefined) [2-Chloro-1-(1H-indol-3-yl)-2-phenylethan-1-one]: melting point 125 °C
- Nc1nc(-c2cccc(F)c2)cs1 [4-(3-Fluorophenyl)-1,3-thiazol-2-amine]: melting point 114 °C

The last 4 entries again:

* Cc1cc(C)n(-c2ccccc2N)n1 [2-(3,5-dimethyl-1H-pyrazol-1-yl)aniline]: melting point 82 °C
* O=C(NC(Cc1c[nH]c2ccccc12)C(=O)O)c1ccc(F)cc1 (centres undefined) [N-(4-Fluorobenzoyl)tryptophan]: melting point 96.5 °C
* O=C(c1c[nH]c2ccccc12)C(Cl)c1ccccc1 (centres undefined) [2-Chloro-1-(1H-indol-3-yl)-2-phenylethan-1-one]: melting point 125 °C
* Nc1nc(-c2cccc(F)c2)cs1 [4-(3-Fluorophenyl)-1,3-thiazol-2-amine]: melting point 114 °C